Usually Ki stands for a measure of affinity in units of concentration, obtained from inhibition or displacement.

The chains behind the UniProt entries cited, without tags or fusion partners. Residues count along the entry.
UniProt P00742, 235-488 limits assumed: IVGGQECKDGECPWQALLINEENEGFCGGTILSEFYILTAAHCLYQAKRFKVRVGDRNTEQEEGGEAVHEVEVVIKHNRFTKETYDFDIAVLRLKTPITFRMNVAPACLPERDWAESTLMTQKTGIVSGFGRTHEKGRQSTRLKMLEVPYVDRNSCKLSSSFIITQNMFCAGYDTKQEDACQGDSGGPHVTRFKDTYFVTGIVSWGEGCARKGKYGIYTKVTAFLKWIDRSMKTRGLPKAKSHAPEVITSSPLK
UniProt P00742, 41-179 partner limits assumed: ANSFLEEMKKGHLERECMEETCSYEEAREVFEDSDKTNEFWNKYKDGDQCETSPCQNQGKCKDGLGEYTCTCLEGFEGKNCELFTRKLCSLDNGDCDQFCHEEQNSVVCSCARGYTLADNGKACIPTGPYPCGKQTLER

Our source for the Ki values is patent US6337344B1, “Indole derivatives as inhibitors or factor Xa” (Aventis Pharma Deutschland GmbH, priority 1997, dated 2002).

This test addresses human factor Xa (Homo sapiens, UniProt P00742). As to the kind of experiment: Factor Xa assay (Test 1, a.), chromogenic substrate S-2765. It is filed as biochemical. As to conditions: read-out: Ki (Xa); purified human factor Xa 0.5 nM, substrate S-2765 140 μM, 25° C.; Ki from IC50 corrected for substrate competition; tested form: TFA.

Consider `N=C(N)c1cccc(Cn2c(C(=O)NCC3CCCCC3)cc3c(O)cccc32)c1`, for which the Ki was 1100 nM.
As to `Cc1cccc2c1cc(C(N)=O)n2Cc1cccc(C(=N)N)c1`, the Ki was 7900 nM.
For `N=C(N)c1cccc(Cn2c(C(=O)NCc3ccccn3)cc3c(O)cccc32)c1` the value was 3300 nM; for `N=C(N)c1cccc(Cn2c(C(=O)NCc3ccc4ccccc4c3)cc3c(O)cccc32)c1`, 1700 nM; for `N=C(N)c1ccc(Cn2c(C(=O)O)cc3ccccc32)cc1`, 110000 nM.
Take `N=C(N)c1cccc(Cn2c(C(=O)NCCc3ccc(Cl)cc3)cc3c(O)cccc32)c1`: the Ki amounted to 1600 nM.
